Test [1] is filed under the species Homo sapiens. Put plainly: Selectivity index, ratio of IC50 for human DNMT1 to IC50 for recombinant human N-terminal GST-tagged DOT1L (1 to 420 residues) expressed in Escherichia coli BL21 (DE3).
The species entered for test [2] is Homo sapiens. The experiment in a line: Selectivity index, ratio of IC50 for human PRMT3 to IC50 for recombinant human N-terminal GST-tagged DOT1L (1 to 420 residues) expressed in Escherichia coli BL21 (DE3).
Test [3] is filed under the species Homo sapiens. The experiment in a line: Selectivity index, ratio of IC50 for human PRMT8 to IC50 for recombinant human N-terminal GST-tagged DOT1L (1 to 420 residues) expressed in Escherichia coli BL21 (DE3).
For test [4], the species on record is Homo sapiens. Put plainly: Selectivity index, ratio of IC50 for human PRMT5 to IC50 for recombinant human N-terminal GST-tagged DOT1L (1 to 420 residues) expressed in Escherichia coli BL21 (DE3).

Take `CC(C)(C)c1ccc(NC(=O)c2ncn(CC(=O)NCCn3ccc4c(N)ncnc43)n2)cc1`: the Ratio IC50 in test [1] was 250; in test [2] it was 130; in test [3] it was above 250; in test [4], 175.

Values taken from ChEMBL document CHEMBL4680176, “Identification of DOT1L inhibitors by structure-based virtual screening adapted from a nucleoside-focused library” (Eur J Med Chem, 2020).
